# Ab-14 heavy chain CDR variants: yeast mating affinities

Values reported by Li et al. 2023, doi:10.1038/s41467-023-39022-2 (FLAb copy).

Target peptide (SARS-CoV-2 spike, HR2 region): PDVDLGDISGINAS

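Phage display of a naive human antibody library on the peptide gave the parent. The variants were designed computationally from a first round of random CDR variants and then made and measured. Several design methods are mixed in this list. In AlphaSeq, yeast of one mating type display the scFv and yeast of the other type display the target. Binding brings cells together so that they mate, and sequencing counts the barcode pairs among the diploids. Each replicate has its own calibration line, from reference interactions of the BCL2 family. Mating was done six times.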

Each scFv is VH, three GGGGS repeats, VL, as in the parent Ab-14, and differs from it in the CDRs of the heavy chain only.
VH: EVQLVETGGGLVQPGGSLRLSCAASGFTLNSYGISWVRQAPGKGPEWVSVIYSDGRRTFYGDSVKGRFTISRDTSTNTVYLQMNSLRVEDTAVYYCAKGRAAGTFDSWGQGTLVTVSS
VL: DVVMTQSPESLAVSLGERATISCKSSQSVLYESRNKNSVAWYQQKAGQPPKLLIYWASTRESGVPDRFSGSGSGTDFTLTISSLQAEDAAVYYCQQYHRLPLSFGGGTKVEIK

Positions count from residue 1 of the parent VH; S31E puts E in place of S. Variants here have at most six changes. Kd is apparent (estimated from mating counts) and averaged on the log scale over replicates with a signal. Smaller is tighter. An entry "nd" has no value in the source: the pair was not observed among the diploids in any replicate. This suggests poor binding but is not conclusive. A sequence measured in both rounds can read differently, since the two assays cover different ranges.

Variant S31E+A102G+G103V+S107Q gave 1.0 nM (6 of 6 replicates; controls 0 of 18).
Variant S31D+R56E+G103Q gave nd (0 of 6 replicates; controls 0 of 18).
Variant T28S+A101E+S107R gave 3.6 nM (6 of 6 replicates; controls 0 of 18).
Variant T28W+A101W gave 420 nM (1 of 6 replicates; controls 0 of 18).
Variant T28S+S63A+A101Q gave 15 nM (6 of 6 replicates; controls 0 of 18).
Variant T28S+G61A+R100S+S107N gave nd (0 of 6 replicates; controls 0 of 18).
Variant T28P+F59S+R100E+G103S gave 35 nM (1 of 6 replicates; controls 1 of 18).
Variant T28D+R100K+S107K gave 3.6 nM (5 of 6 replicates; controls 0 of 18).
Variant F27E+N30E+S31E+R56L+G61I+A101E gave nd (0 of 6 replicates; controls 0 of 18).
Variant R100L+A101L gave 14 nM (6 of 6 replicates; controls 0 of 18).
Variant F27D+T28S+I51D+A102T+S107A gave nd (0 of 6 replicates; controls 0 of 18).
Variant S31D+R56K+F59W+G61I gave nd (0 of 6 replicates; controls 0 of 18).
Variant T28S+S31D+G61I+A101T gave 440 pM (6 of 6 replicates; controls 0 of 18).
Variant G26K+T28S+S31Q+R100Q gave nd (0 of 6 replicates; controls 0 of 18).
Variant N30C+S53A+F105N+D106K gave nd (0 of 6 replicates; controls 0 of 18).
Variant T28S+G61V+S63D+A101T+S107Q gave 3.2 nM (6 of 6 replicates; controls 0 of 18).
Variant R100A+T104Q+F105N+D106T gave nd (0 of 6 replicates; controls 0 of 18).
Variant T28D+F59V+A101Q gave 850 pM (6 of 6 replicates; controls 0 of 18).
Variant T28E+R56H+A101Q gave 36 nM (3 of 6 replicates; controls 0 of 18).
Variant R56L+G61D+A101T gave 960 pM (6 of 6 replicates; controls 0 of 18).
Variant T28N+G61T+A101T gave 1.5 nM (6 of 6 replicates; controls 1 of 18).
Variant S31E+R100Q+D106E gave 3.0 nM (6 of 6 replicates; controls 0 of 18).
Variant T28D+S63R+R100K+A101T+S107A gave 9.8 nM (6 of 6 replicates; controls 1 of 18).
Variant T28D+S31E+S53A+G61V+R100K+A101N gave 270 pM (6 of 6 replicates; controls 0 of 18).
Variant N30E+G55P+G61S+A102G+G103H+D106G gave nd (0 of 6 replicates; controls 1 of 18).
Variant T28A+T58V+S63R gave 320 nM (1 of 6 replicates; controls 0 of 18).
Variant N30K+S53A+S63D gave 1.5 nM (6 of 6 replicates; controls 0 of 18).
Variant N30E+I34G+F59S+G61L+A101E+A102P gave nd (0 of 6 replicates; controls 0 of 18).
Variant T28Q+A101Q gave 25 nM (4 of 6 replicates; controls 0 of 18).
Variant T28N+G61H+R100Q gave 6.9 nM (6 of 6 replicates; controls 0 of 18).
Variant Y32C+G61I+G99C+A101V+T104V+D106V gave nd (0 of 6 replicates; controls 0 of 18).
Variant T28Y+G61I+R100N gave 41 nM (1 of 6 replicates; controls 0 of 18).
Variant T28N+A101Q+S107N gave 20 nM (3 of 6 replicates; controls 0 of 18).
Variant T28D+G61A+S63D+S107V gave 3.5 nM (6 of 6 replicates; controls 0 of 18).
Variant T28H+S31E+R100K gave 1.6 nM (6 of 6 replicates; controls 0 of 18).
Variant G26K+T28D+A101I gave 3.3 nM (5 of 6 replicates; controls 0 of 18).
Variant T28E+A101T+A102Y+D106P+S107Q gave 35 nM (5 of 6 replicates; controls 0 of 18).
Variant R56K+G61A+S63D+A101E+S107T gave 550 pM (6 of 6 replicates; controls 0 of 18).
Variant R56K+R100E+S107K gave 37 nM (6 of 6 replicates; controls 0 of 18).
Variant T28E+G61R+R100Q+A101T gave 5.3 nM (5 of 6 replicates; controls 0 of 18).
Variant G61S+S63D+G99H+S107H gave nd (0 of 6 replicates; controls 0 of 18).

Of ten entries with the parent sequence, four were seen in most replicates (averages 2.2 nM to 240 nM), three in one and three in none, so single entries are noisy. The authors averaged sequences with at least three values out of six and counted those with two or fewer as poor binders. Background: pairings of all heavy chain designs with three empty control strains gave a value in 1% of cases (median 120 nM, 5th percentile 7.0 nM). Values in that range, when seen in few replicates, are hard to tell from nonspecific mating. Also given: how often the same scFv was detected with the empty control strains.